# Data taken from paper PMC5320394, “Development of a Novel Formulation That Improves Preclinical Bioavailability of Tenofovir Disoproxil Fumarate” (Journal of Pharmaceutical Sciences, 2017).
# Key:
# Caco-2 cell monolayers = conditions: 1 mM BNPP, 1 mM PP, 0.05% wt/vol EM1, 0.5 mg/mL TPGS, 10 μM CsA, 2 μM GF918
# [1] = rat, in vivo
substance,measurement,setting,value
D-a-tocopheryl polyethylene glycol 1000 succinate [TPGS],"Fold Increase, TDF (A to B transport)","Caco-2 cell monolayers; Caco-2, versus no inhibitor",1.8 fold
same,"Fold Increase, TFV Family (A to B transport)","Caco-2 cell monolayers; Caco-2, versus no inhibitor",1.7 fold
same,"% Measured Basolateral, TDF (median), with inhibitor(s)","Caco-2 cell monolayers; Caco-2 A to B, 10 μM, 120 min",1.45%
same,"% Measured Basolateral, TNF (median), with inhibitor(s)","Caco-2 cell monolayers; Caco-2 A to B, 10 μM, 120 min",0.30%
same,"% Measured Basolateral, TNF-ME (median), with inhibitor(s)","Caco-2 cell monolayers; Caco-2 A to B, 10 μM, 120 min",1.27%
same,"Fraction of IV (bioavailability), with inhibitor(s)",[1],47.5%
